{"source": "patent EP1705169A2", "about": "“Triphenylalkene derivatives and their use as selective estrogen receptor modulators” (priority 1999, dated 2001)", "tested_on": "ovariectomized rats", "conditions": "5 mg/kg peroral daily, 4 weeks, ovariectomized rats (Sham 0.497 ± 0.103; Ovariectomized 0.099 ± 0.016)"}
{"compound": "OCCOc1ccc(/C(=C(/CCCl)c2ccccc2)c2ccccc2)cc1", "note": "[FC-1271a, 2-[4-(4-chloro-1,2-diphenyl-but-1-enyl)phenoxy]ethanol, reference compound]", "values": [{"measurement": "Uterine size", "result": "0.411 ± 0.042", "unit": "g"}]}
